# Reference: patent publication US20240123073A1, “NOVEL RIPK1 KINASE TARGETING PROTACS AND METHODS OF USE THEREOF” (Baylor College of Medicine, priority 2020, published 2024)
# Amino acid sequences for entries named in this document (tags omitted).
# UniProt Q13546, whole entry: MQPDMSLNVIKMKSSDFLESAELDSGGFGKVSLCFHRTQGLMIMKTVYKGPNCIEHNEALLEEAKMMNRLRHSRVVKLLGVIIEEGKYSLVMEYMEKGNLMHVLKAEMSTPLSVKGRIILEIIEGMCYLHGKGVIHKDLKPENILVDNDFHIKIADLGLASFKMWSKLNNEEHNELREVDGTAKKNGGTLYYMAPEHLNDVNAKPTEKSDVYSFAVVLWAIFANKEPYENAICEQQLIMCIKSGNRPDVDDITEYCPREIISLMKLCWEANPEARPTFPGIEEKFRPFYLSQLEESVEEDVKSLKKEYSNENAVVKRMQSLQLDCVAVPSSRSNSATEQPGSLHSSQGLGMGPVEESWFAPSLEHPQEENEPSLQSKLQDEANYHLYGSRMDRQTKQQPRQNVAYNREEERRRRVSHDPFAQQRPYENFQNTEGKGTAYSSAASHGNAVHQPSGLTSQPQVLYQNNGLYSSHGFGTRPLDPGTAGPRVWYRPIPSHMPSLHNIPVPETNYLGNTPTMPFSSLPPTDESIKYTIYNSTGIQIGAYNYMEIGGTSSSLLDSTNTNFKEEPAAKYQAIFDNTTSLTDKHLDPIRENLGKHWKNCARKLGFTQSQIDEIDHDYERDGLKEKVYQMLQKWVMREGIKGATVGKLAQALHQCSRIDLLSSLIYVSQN
# Target: RIPK1 (Homo sapiens, UniProt Q13546)
# Assay: RIPK1 degradation Western Blot assay
# Type: cell-based
# Details: read-out: Degradation Activity (DC50, concentration at which 50% of RIPK1 kinase has been degraded), human cells, 24 h incubation at 37° C.
row,SMILES,DC50
1,Cc1ncsc1-c1ccc([C@H](C)NC(=O)[C@@H]2C[C@@H](O)CN2C(=O)[C@@H](NC(=O)CCCCN2CC3(CC(Oc4ccc(C(=O)NCCCn5cc(-c6ccc7c(c6)CCN7C(=O)Cc6cccc(OC(F)(F)F)c6)c6c(N)ncnc65)cn4)C3)C2)C(C)(C)C)cc1,< 1000 nM
2,Cc1ncsc1-c1ccc([C@H](C)NC(=O)[C@@H]2C[C@@H](O)CN2C(=O)[C@@H](NC(=O)CCN2CCN(CCC(=O)NCCCn3cc(-c4ccc5c(c4)CCN5C(=O)Cc4cccc(OC(F)(F)F)c4)c4c(N)ncnc43)CC2)C(C)(C)C)cc1,< 1000 nM
3,Nc1ncnc2c1c(-c1ccc3c(c1)CCN3C(=O)Cc1cccc(OC(F)(F)F)c1)cn2CCCNC(=O)CCCCCCCCNC(=O)COc1ccc(C2CCC(=O)NC2=O)cc1 (stereo not drawn),> 10000 nM
4,Cc1ncsc1-c1ccc([C@H](C)NC(=O)[C@@H]2C[C@@H](O)CN2C(=O)[C@@H](NC(=O)CCCCCCCCCCC(=O)NCCCn2cc(-c3ccc4c(c3)CCN4C(=O)Cc3cccc(OC(F)(F)F)c3)c3c(N)ncnc32)C(C)(C)C)cc1,< 1000 nM
5,Nc1ncnc2c1c(-c1ccc3c(c1)CCN3C(=O)Cc1cccc(OC(F)(F)F)c1)cn2CCCNC(=O)CCCCCCCCNC(=O)CNc1cccc2c1C(=O)N(C1CCC(=O)NC1=O)C2=O (stereo not drawn),1000 to 10000 nM
6,Nc1ncnc2c1c(-c1ccc3c(c1)CCN3C(=O)Cc1cccc(OC(F)(F)F)c1)cn2CCCCCNC(=O)CCCCCCCCCCNc1cccc2c1C(=O)N(C1CCC(=O)NC1=O)C2=O (stereo not drawn),< 1000 nM
7,O=C(NCCOCCOCCC(=O)N1CCC(C(=O)N2N=CCC2c2ccccc2)CC1)[C@@H]1NC2(CCCCC2)[C@@]2(C(=O)Nc3cc(Cl)ccc32)[C@H]1c1cccc(Cl)c1F (stereo partly drawn),1000 to 10000 nM
8,Nc1ncnc2c1c(-c1ccc3c(c1)CCN3C(=O)Cc1cccc(OC(F)(F)F)c1)cn2CCCNC(=O)CCCCCCCCCCNC(=O)CNc1ccc(C(=O)NC2CCC(=O)NC2=O)nc1 (stereo not drawn),1000 to 10000 nM
9,Cc1ncsc1-c1ccc([C@H](C)NC(=O)[C@@H]2C[C@@H](O)CN2C(=O)[C@@H](NC(=O)CCOCCOCCC(=O)NCCCn2cc(-c3ccc4c(c3)CCN4C(=O)Cc3cccc(OC(F)(F)F)c3)c3c(N)ncnc32)C(C)(C)C)cc1,< 1000 nM
10,O=C1CCC(N2C(=O)c3cccc(NCCOCCOCCOCCOCCNC(=O)c4ccc(-c5cc(N6CCC(C(=O)N7N=CCC7c7ccccc7)CC6)ncn5)cc4)c3C2=O)C(=O)N1 (stereo not drawn),> 10000 nM
11,Cn1c(=O)n(C2CCC(=O)NC2=O)c2ccc(CCC(=O)NCCCCCCCCC(=O)NCCCn3cc(-c4ccc5c(c4)CCN5C(=O)Cc4cccc(OC(F)(F)F)c4)c4c(N)ncnc43)cc21 (stereo not drawn),< 1000 nM
12,Cc1ncsc1-c1ccc([C@H](C)NC(=O)[C@@H]2C[C@@H](O)CN2C(=O)[C@@H](NC(=O)CCCCCCCCC(=O)NCCCn2cc(-c3ccc4c(c3)CCN4C(=O)Cc3cccc(OC(F)(F)F)c3)c3c(N)ncnc32)C(C)(C)C)cc1,< 1000 nM
13,Cn1c(=O)n(C2CCC(=O)NC2=O)c2ccc(CCC(=O)NCCCCCCCCCCC(=O)NCCCn3cc(-c4ccc5c(c4)CCN5C(=O)Cc4cccc(OC(F)(F)F)c4)c4c(N)ncnc43)cc21 (stereo not drawn),< 1000 nM
14,Cc1ncsc1-c1ccc([C@H](C)NC(=O)[C@@H]2C[C@@H](O)CN2C(=O)[C@@H](NC(=O)CCCCCCCCCCCCCCC(=O)NCCCn2cc(-c3ccc4c(c3)CCN4C(=O)Cc3cccc(OC(F)(F)F)c3)c3c(N)ncnc32)C(C)(C)C)cc1,< 1000 nM
15,Nc1ncnc2c1c(-c1ccc3c(c1)CCN3C(=O)Cc1cccc(OC(F)(F)F)c1)cn2CCCNC(=O)CCCCCCCCNC(=O)CN1CCC(c2ccc(NC3CCC(=O)NC3=O)cc2)CC1 (stereo not drawn),< 1000 nM
16,Nc1ncnc2c1c(-c1ccc3c(c1)CCN3C(=O)Cc1cccc(OC(F)(F)F)c1)cn2CCCNC(=O)CCCCCCCCCCNC(=O)C1CCN(c2ccc(C(=O)NC3CCC(=O)NC3=O)cn2)CC1 (stereo not drawn),1000 to 10000 nM
17,Nc1ncnc2c1c(-c1ccc3c(c1)CCN3C(=O)Cc1cccc(OC(F)(F)F)c1)cn2CCCNC(=O)CCCCCNc1cccc2c1C(=O)N(C1CCC(=O)NC1=O)C2=O (stereo not drawn),> 10000 nM
18,Cc1ncsc1-c1ccc([C@H](CC(=O)NCCCCCCCCCCC(=O)NCCCCCn2cc(-c3ccc4c(c3)CCN4C(=O)Cc3cccc(OC(F)(F)F)c3)c3c(N)ncnc32)NC(=O)[C@@H]2C[C@@H](O)CN2C(=O)[C@@H](NC(=O)C2(F)CC2)C(C)(C)C)cc1,< 1000 nM
